## Measured affinities in a library of Ab-14 heavy chain variants

Reference: Engelhart et al. 2022, doi:10.1038/s41597-022-01779-4. File: FLAb, binding data.

All variants were tested on one target, the spike HR2 peptide PDVDLGDISGINAS (SARS-CoV-2).

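The starting antibody came from a phage panning campaign against this peptide. Library AAYL49 holds single substitutions and randomly drawn double and triple substitutions in the CDRs. In AlphaSeq, yeast of one mating type display the scFv and yeast of the other type display the target. The frequency of each diploid, read from paired DNA barcodes, reflects how well the two displayed proteins bind. Each replicate has its own calibration line, from reference interactions of the BCL2 family. There are three technical replicates.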

Each scFv is VH, a 15-residue (Gly4Ser)3 linker, VL, as in the parent Ab-14, and differs from it in the CDRs of the heavy chain only.
VH: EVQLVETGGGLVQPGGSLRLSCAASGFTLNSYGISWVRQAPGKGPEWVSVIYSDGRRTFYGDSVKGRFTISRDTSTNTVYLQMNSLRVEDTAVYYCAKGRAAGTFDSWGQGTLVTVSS
VL: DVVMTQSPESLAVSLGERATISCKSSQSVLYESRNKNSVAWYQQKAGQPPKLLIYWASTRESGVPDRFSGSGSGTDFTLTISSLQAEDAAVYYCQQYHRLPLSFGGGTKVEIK

Each variant is given by its three heavy chain CDRs, as the data file delimits them; those of the parent are GFTLNSYGIS, VIYSDGRRTFYGDSVK, GRAAGTFDS.
All variants listed here change Y32 of the VH, counted from its first residue.
Values are log10 of the apparent Kd in nM; lower means stronger binding.
Replicates are averaged; those with no signal do not enter the mean.
An entry "nd" has no value in the source: the pair was not observed among the diploids in any replicate. This suggests poor binding but is not conclusive.
Empty control strains, which show no peptide, gave a signal in 15% of pairings with library AAYL49; the median was 4.06 and 95% of these signals were weaker than 2.83. No background was subtracted. Also given: how often the same scFv was detected with the empty control strains.

| CDR-H1 | CDR-H2 | CDR-H3 | log10 Kd (nM), mean | detected | empty controls |
|---|---|---|---|---|---|
| GFTLNSQGIS | VIYSDGRRTFYGDPVK | GRAAGTFDH | nd | 0/3 | 0/9 |
| GFTHNSCGIS | VIYSDGRETFYGDSVK | GRAAGTFDS | nd | 0/3 | 0/9 |
| GFTLNSEGIS | VIYSDGRRTFYGDSDK | GRAAGTFDR | nd | 0/3 | 1/9 |
| GFTLNSQGIS | VIYSDGRRTCYGDSVK | GRQAGTFDS | 4.29 | 2/3 | 6/9 |
| GFTLNSSGIS | VIYSDGRRTFYGDSVK | HQAAGTFDS | nd | 0/3 | 0/9 |
| GFTLNSTGIS | VIYSDGRGTFYGDSVK | GTAAGTFDS | 5.06 | 1/3 | 3/9 |
| GFTLNSQGIS | VIYSDGRRTFAGDSVK | GRAAGTFDY | nd | 0/3 | 1/9 |
| GFTLSSTGIS | VIYSDGRRTFYGDSVK | GRAAGTFDW | nd | 0/3 | 1/9 |
| GFTLNSLGIS | VLYSDGRRTFYGDSVK | GRAAGTFWS | nd | 0/3 | 0/9 |
| GFTLNSGGIA | VIYSDGRRTFYGDSVK | GRAAGTFQS | 5.70 | 1/3 | 3/9 |
| GFTLNSDGIS | VIYSDGRRTFYGDSVK | GRAAGTFDS | 4.99 | 1/3 | 1/9 |
| GFHLNSNGIS | VIYKDGRRTFYGDSVK | GRAAGTFDS | nd | 0/3 | 1/9 |
| GFTLNSIGIS | WIYSDGRRTFYGDSVK | GMAAGTFDS | nd | 0/3 | 0/9 |
| GFTLNGNGIS | VIYQDGRRTFYGDSVK | GRAAGTFDS | 3.73 | 1/3 | 2/9 |
| GFTLNSIGIS | VIYSDGRRTFYGDSVG | GRAAGGFDS | 3.58 | 2/3 | 0/9 |
| GFTLNSRYIS | VIYSDGRRTFYGDSVK | GRAAETFDS | nd | 0/3 | 0/9 |
| GFTLNSAGIS | VIYSDGRRTFYGISVK | GRAACTFDS | 3.58 | 1/3 | 0/9 |
| GFTLNSIGIS | HIYSDGRRTFYGYSVK | GRAAGTFDS | 2.52 | 1/3 | 2/9 |
| GFTLISMGIS | VIYSDGRFTFYGDSVK | GRAAGTFDS | nd | 0/3 | 3/9 |
| GFTLNSGGIS | EIYSDGRRTRYGDSVK | GRAAGTFDS | nd | 0/3 | 0/9 |
| GFTLNSVGIS | VIYSDGRRTFYRDSVK | GRASGTFDS | 2.92 | 1/3 | 2/9 |
| GFTLNSPGIS | VIYSDGRRTFYGDSVK | GRAAGTFDS | nd | 0/3 | 0/9 |
| GFTFNSEGIS | VIYSDGRRTFYGDSVK | GRAAGTFDS | nd | 0/3 | 2/9 |
| GFTLNSVGIS | VIYSDGRITFEGDSVK | GRAAGTFDS | 4.79 | 3/3 | 5/9 |
| GFTLNSTGIS | RIYSDGRRTFYGDSVK | GRAAGTFMS | nd | 0/3 | 3/9 |
| GFTLNSDGIS | VIYSDGRATFYGASVK | GRAAGTFDS | nd | 0/3 | 1/9 |
| GFTLNSHWIS | VIYSDGRRTPYGDSVK | GRAAGTFDS | 5.15 | 1/3 | 2/9 |
| DFTLNSEGIS | VIYSDGRRTFYGDSVK | GRAAITFDS | 4.50 | 1/3 | 2/9 |
| GFTLNSLGIS | VHYSDGRRTFYGDSVK | GRAEGTFDS | 4.23 | 3/3 | 2/9 |
| GFTLQSMGIS | VIYSDGRRTFYGDSVK | GRAAGHFDS | 3.08 | 1/3 | 0/9 |
| GFTLNSRGQS | VIYSDGRRTFYGDSVK | GRAAGTEDS | 3.75 | 1/3 | 1/9 |
| GFTMNSLGIS | VIYSFGRRTFYGDSVK | GRAAGTFDS | nd | 0/3 | 0/9 |
| GFTLNTNGIS | VIYSDGRWTFYGDSVK | GRAAGTFDS | nd | 0/3 | 0/9 |
| GFTLNSGGIS | AIYSHGRRTFYGDSVK | GRAAGTFDS | nd | 0/3 | 1/9 |
| GFTLNSMGIS | VPYSDGRRTFYGDSVK | TRAAGTFDS | 3.42 | 1/3 | 1/9 |
| GDTLNSNGIS | VIYSDGRRTFYGDSVK | GRAAGTFDS | 4.08 | 2/3 | 1/9 |
| GFTLNFKGIS | VIYSDGRRTFYGDSVK | GRAAGTIDS | 3.40 | 1/3 | 3/9 |
| GFTLNSNGTS | VIYSDYRRTFYGDSVK | GRAAGTFDS | 2.26 | 1/3 | 0/9 |
| SFTLNEWGIS | VIYSDGRRTFYGDSVK | GRAAGTFDS | 2.31 | 1/3 | 1/9 |
| GFTLNSIGIS | VIYSDGRRTFLGDSQK | GRAAGTFDS | nd | 0/3 | 1/9 |
| GFILNSAKIS | VIYSDGRRTFYGDSVK | GRAAGTFDS | nd | 0/3 | 1/9 |
| GFTLNWPGIS | VIYSDGRRTFYGDSVK | LRAAGTFDS | nd | 0/3 | 0/9 |
| GFELISDGIS | VIYSDGRRTFYGDSVK | GRAAGTFDS | 3.36 | 1/3 | 0/9 |
| GFTLNSRGIS | VIYSDGRRTEYGLSVK | GRAAGTFDS | 3.86 | 2/3 | 0/9 |
| GFTLNSKGIS | VIYSDGRRTFYGDSVK | GRAAGTFDS | nd | 0/3 | 1/9 |
| GFTLNSPGIS | VIYSDGRCTFYGDSVK | GRAAGTFDS | nd | 0/3 | 1/9 |
| GFTLNSMGIS | VIYSDGRRTFYGDSVK | SRAAGTFDS | 2.38 | 3/3 | 5/9 |
| GFILNSRGIS | VIYGDGRRTFYGDSVK | GRAAGTFDS | nd | 0/3 | 2/9 |
| GFTLNRQGIS | VIYSDGRRTFYGDSVK | GRAAGTMDS | nd | 0/3 | 0/9 |
| GFTLNSIGIS | VIYSDGRRTFYGDGVK | GRAAGTFDL | nd | 0/3 | 0/9 |
| GFTNNSNGIS | VCYSDGRRTFYGDSVK | GRAAGTFDS | nd | 0/3 | 1/9 |